How the values were obtained:
[1] = target: T1, human LAG-3 on activated Hu CD4+ T cells; assay: flow cytometry on activated human CD4+ T cells (donor WB1907), FL2 GMFI; forced stability study, sample not marked pH 8
T1 construct: differs from m5, which is LAG-3 transduced into 3A9 cells; also called native human LAG-3
T1 chain: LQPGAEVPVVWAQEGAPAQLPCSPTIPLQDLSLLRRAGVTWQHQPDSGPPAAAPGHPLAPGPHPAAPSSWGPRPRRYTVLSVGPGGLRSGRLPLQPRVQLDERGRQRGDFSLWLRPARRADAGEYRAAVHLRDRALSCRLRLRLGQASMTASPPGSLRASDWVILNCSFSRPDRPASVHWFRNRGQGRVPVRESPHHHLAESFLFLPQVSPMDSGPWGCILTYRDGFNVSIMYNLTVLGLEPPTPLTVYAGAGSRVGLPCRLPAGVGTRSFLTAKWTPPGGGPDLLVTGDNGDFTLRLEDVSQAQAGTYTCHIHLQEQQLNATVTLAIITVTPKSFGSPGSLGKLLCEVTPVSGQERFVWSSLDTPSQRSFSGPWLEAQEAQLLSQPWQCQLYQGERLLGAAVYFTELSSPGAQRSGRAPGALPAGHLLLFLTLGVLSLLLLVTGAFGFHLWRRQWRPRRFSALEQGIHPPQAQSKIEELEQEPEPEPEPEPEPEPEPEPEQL
Description: (§1) To test the ability of the antibody variants to bind to native human LAG-3 on the surface of activated human T cells, normal healthy donor peripheral blood mononuclear cells were stimulated in 15 cm tissue culture plates at a density of 2×10e6 cells/mL, with a combination of anti-CD3 (eBioscience, Cat #16-0037-85) and anti-CD28 (BD Bioscience, Cat #555725) antibodies present in solution at 5 μg/mL and 3 μg/mL, respectively. Following three days of stimulation cells were harvested, washed 1× with 1×PFAE buffer (1×PBS+2% FBS, 0.02% sodium azide, 2 mM Na EDTA), and resuspended in 1×PFAE buffer for staining.
(§2) For the binding reaction, 100 μl of this diluted antibody mixture was added to 2×10⁵ cells and the mixture was incubated on at 4° C. for 30 minutes. The cells were then washed two times with 1×PFAE buffer. A 1:200 dilution of PE-labeled goat anti-human Fcγ-specific antibody (Jackson ImmunoResearch, Cat. #109-116-170) was added and the mixture was incubated for 30 minutes at 4° C., followed by washing twice with cold 1×PFAE buffer. After the final wash, 150 μl of cold 1×PFAE was added to each solution and analysis of antibody binding was carried out by flow cytometry using a FACSCanto flow cytometer (BD Bioscience).

[2] = target: T1, human LAG-3 on activated Hu CD4+ T cells; assay: flow cytometry on activated human CD4+ T cells (donor WB1907), FL2 GMFI; antibody after 5 days at 40 °C in pH 8.0 ammonium bicarbonate
Description: as §1, §2

- EC50 [1]: 460 pM
- EC50 [2]: 460 pM
B1: LAG3.5 monoclonal antibody (variant of 25F7 with R at position 54 and S at position 56 of VH CDR2) (antibody, human IgG4 S228P, kappa, V domains shown)
VH: QVQLQQWGAGLLKPSETLSLTCAVYGGSFSDYYWNWIRQPPGKGLEWIGEINHRGSTNSNPSLKSRVTLSLDTSKNQFSLKLRSVTAADTAVYYCAFGYSDYEYNWFDPWGQGTLVTVSS
VL: EIVLTQSPATLSLSPGERATLSCRASQSISSYLAWYQQKPGQAPRLLIYDASNRATGIPARFSGSGSGTDFTLTISSLEPEDFAVYYCQQRSNWPLTFGQGTNLEIKR

From patent publication US20170137514A1 (Bristol-Myers Squibb, published 2017)
